# Measured properties of organic chemicals

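OPERA's authors assembled the values from existing databases and did not measure them anew. The files give a single number for a compound and property, which may rest on several reports. How each value was measured is not recorded, so precision varies. Where a salt, mixture or single isomer is drawn, the source does not say that exactly this form was tested. Some entries may be limits or estimates that an upstream database listed as plain numbers.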

Melting points are in °C.
Boiling points are in °C, nominally at 760 mmHg.
logP is the log10 of the octanol-water partition coefficient; higher is more lipophilic.
Water solubility is log10 of mol/L, nominally at 25 °C; higher is more soluble.
Vapor pressure is log10 of mmHg; the set covers 15 to 30 °C, mostly 20 to 25 °C.
fu is the fraction unbound in human plasma, from 0 to 1.
Cells with "n/a" have no entry in this list.

mp (°C),boiling point (°C),log Kow,log S (log10 mol/L),log vapor pressure (log10 mmHg),plasma fu,SMILES,name
n/a,n/a,n/a,-3.394,-10.36,n/a,CCCCN(CCCC)c1nc(S)nc(S)n1,"1,3,5-Triazine-2,4(1H,3H)-dithione, 6-(dibutylamino)-"
n/a,n/a,6.12,n/a,-2.429,n/a,BrCCCCCCCCCCBr,"1,10-Dibromodecane-"
109.4,n/a,7.5,-7.785,-7.082,n/a,Cc1ccc(I)cc1Cc1ccc(-c2ccc(F)cc2)s1,n/a
n/a,n/a,-1.1,n/a,-6.76,n/a,COS(=O)(=O)[O-].COc1ccc(N(C)/N=C/C2=[N+](C)c3ccccc3C2(C)C)cc1,C.I. Basic Yellow 28
n/a,n/a,n/a,0.759,1.556,n/a,CC(C)CCN,3-Methyl-1-butanamine
-23.98,315,n/a,n/a,-2.846,n/a,C[Si](NC1CCCCC1)(NC1CCCCC1)NC1CCCCC1,"N,N',N''-Tricyclohexyl-1-methylsilanetriamine"
n/a,n/a,n/a,-1.33,n/a,0.007447,COC(=O)c1ccc(I)cc1S(=O)(=O)[N-]C(=O)Nc1nc(C)nc(OC)n1.[Na+],Iodosulfuron-methyl-sodium
n/a,n/a,4.01,-5.79,n/a,n/a,COC(=O)c1ccc(C(=O)Nc2cc(Cl)ccc2Cl)cc1N,n/a
29,n/a,n/a,-2.589,-3.764,n/a,COc1cc(C=O)ccc1OC(=O)C(C)C,4-Formyl-2-methoxyphenyl isobutyrate
n/a,n/a,n/a,-3.096,-0.386,n/a,CO[Si](C)(OC)C1CCCCC1,Cyclohexyl(methyl)dimethoxysilane
-12.4,359.3,n/a,-6.124,n/a,n/a,CC(CCC(COC(=O)CC(O)C(=O)OCC(CCC(C)CC(C)(C)C)C(C)CC(C)(C)C)C(C)CC(C)(C)C)CC(C)(C)C (centres undefined),n/a
202.6,n/a,2.24,-3.526,-12.99,n/a,C[C@]12CCC(=O)C=C1CC[C@@H]1[C@@H]2CC[C@@]2(C)[C@H]1CC[C@@]2(O)C#CCO,17beta-Hydroxy-17-(3-hydroxy-1-propynyl)androst-4-ene-3-one
n/a,n/a,1.7,n/a,-2.953,n/a,CCCCN(CCC(=O)OCC)C(C)=O,Ethyl 3-(N-butylacetamido)propionate
n/a,n/a,4.4,-3.597,-1.156,n/a,C=CC(=C)CCCC(C)(C)OC(C)=O,2-methyl-6-methylideneoct-7-en-2-yl acetate
-31.5,252.5,n/a,-2.81,-1.912,n/a,O=C1CCC=CCCC=CCCC1,"4,8-Cyclododecadien-1-one"
211.3,n/a,1.2,n/a,n/a,n/a,CN(/N=C/C1=[N+](C)c2ccccc2C1(C)C)c1ccccc1.[Cl-],n/a
n/a,n/a,n/a,-3.412,-0.712,n/a,CCOC(=O)C1=C(C)C=CCC1(C)C,n/a
n/a,n/a,2.3,-2.167,n/a,n/a,Cc1cc(C2CCCCC2)n(O)c(=O)c1,Ciclopirox
-20.07,n/a,2.01,-2.114,-1.044,n/a,C=C(OC(C)=O)c1ccccc1,1-Phenylethenyl acetate
n/a,n/a,4.7,-4.47,n/a,n/a,CC(COc1ccccc1)N(CCCl)Cc1ccccc1 (centres undefined),Phenoxybenzamine
158,n/a,3.8,-5.965,n/a,n/a,COC(=O)c1ccc(C(=O)Nc2cc(Cl)ccc2Cl)cc1[N+](=O)[O-],n/a
n/a,n/a,4.44,-8.265,-7.694,n/a,COCCOCCCn1c(=O)c2c(N)c3c(=O)c4ccccc4c(=O)c3c(N)c2c1=O,n/a
n/a,174,3.97,-4.343,0.409,n/a,CCOC1C(C)CCCC1C (centres undefined),"2-Ethoxy-1,3-dimethylcyclohexane"
n/a,n/a,4,-3.762,-1.957,n/a,CCOC(=O)[C@@]12CCC[C@@H]1[C@@H]1CC[C@H]2C1 (relative stereo),n/a

Source: data files of OPERA 2.9 (Mansouri et al.), github.com/kmansouri/OPERA.